Values of other authors in paper PMC7406630, “A new ^68Ga-labeled somatostatin analog containing two iodo-amino acids for dual somatostatin receptor subtype 2 and 5 targeting” (EJNMMI Research, 2020).

Protein sequences, listed by entry. Tags and fused reporters are not part of them. Lines headed by an entry give the natural chain unless they say otherwise; changes in a name come on top.
UniProt P30874: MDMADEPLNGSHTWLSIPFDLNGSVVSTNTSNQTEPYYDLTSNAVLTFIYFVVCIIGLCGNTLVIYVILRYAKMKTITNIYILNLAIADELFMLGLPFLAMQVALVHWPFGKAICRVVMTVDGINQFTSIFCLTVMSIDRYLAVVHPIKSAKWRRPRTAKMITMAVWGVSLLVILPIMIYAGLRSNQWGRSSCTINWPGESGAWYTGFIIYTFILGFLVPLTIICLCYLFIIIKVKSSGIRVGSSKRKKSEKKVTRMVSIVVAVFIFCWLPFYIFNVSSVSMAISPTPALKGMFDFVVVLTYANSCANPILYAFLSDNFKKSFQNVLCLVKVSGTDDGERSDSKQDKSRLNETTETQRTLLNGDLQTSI

Target: T1, human SST2 (Homo sapiens, UniProt P30874)
T1 construct: expressed in transfected cells; host or cells: HEK293 (HEK-SST2)
Set-up: method as in PMID 29523357
Settings: cAMP, HEK-SST2 cells; read-out: SST2 EC50, nM (95% CI); cited from earlier work

Substance | EC50
Octreotide | 0.21 nM
Somatostatin-14 | 0.23 nM
